# CycPeptMPDB entries from one study

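Lipid, pH, incubation time, direction and concentration are not recorded in the data file. The list need not hold all peptides of the study. Peptides that the database sets to -10, its floor, are left out.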

PAMPA is the parallel artificial membrane permeability assay, which has no cells and reads passive diffusion.
Permeability is in 10^-6 cm/s, converted from the database's log10 values; higher is more permeable.

compound	PAMPA (10^-6 cm/s)
CC(C)C[C@@H]1NC(=O)[C@@H](CC(C)C)NC(=O)[C@H](CC(C)C)N(C)C(=O)[C@H](Cc2ccc(O)cc2)NC(=O)[C@H]2CCCN2C(=O)[C@H](CC(C)C)NC1=O	0.6
CC(C)C[C@@H]1NC(=O)[C@H](Cc2ccc(O)cc2)NC(=O)[C@H]2CCCN2C(=O)[C@H](CC(C)C)OC(=O)[C@H](CC(C)C)NC(=O)[C@@H](CC(C)C)NC1=O	2.9
CC(C)C[C@@H]1NC(=O)[C@H](Cc2ccc(O)cc2)NC(=O)[C@H]2CCCN2C(=O)[C@H](CC(C)C)N(C)C(=O)[C@H](CC(C)C)NC(=O)[C@@H](CC(C)C)NC1=O	0.5
CC(C)C[C@@H]1NC(=O)[C@@H](CC(C)C)NC(=O)[C@H](CC(C)C)OC(=O)[C@H](Cc2ccc(O)cc2)NC(=O)[C@H]2CCCN2C(=O)[C@H](CC(C)C)NC1=O	3.1
CC(C)C[C@@H]1NC(=O)[C@H](Cc2ccc(O)cc2)NC(=O)[C@H]2CCCN2C(=O)[C@H](CC(C)C)NC(=O)[C@H](CC(C)C)OC(=O)[C@@H](CC(C)C)NC1=O	4.1
CC(C)C[C@@H]1NC(=O)[C@@H](CC(C)C)OC(=O)[C@H](CC(C)C)NC(=O)[C@H](Cc2ccc(O)cc2)NC(=O)[C@H]2CCCN2C(=O)[C@H](CC(C)C)NC1=O	0.4

Source: CycPeptMPDB (Li et al. 2023), which took these values from Hosono et al. 2020, doi:10.26434/chemrxiv.12272861.v1.